## Measured affinities in a library of Ab-14 light chain variants

Target peptide (SARS-CoV-2 spike, HR2 region): PDVDLGDISGINAS

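The starting antibody came from a phage panning campaign against this peptide. Designed CDR sequences, proposed from the first random library and measured here. Several design methods are mixed in this list. AlphaSeq pools MATa yeast showing the antibodies with MATalpha yeast showing the peptide. Binding brings cells together so that they mate, and sequencing counts the barcode pairs among the diploids. Each replicate has its own calibration line, from reference interactions of the BCL2 family. Each pool was mated in six replicate cultures.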

Parent: Ab-14, a human scFv built as VH, a 15-residue (Gly4Ser)3 linker, VL. Only the CDRs of the light chain vary.
VH: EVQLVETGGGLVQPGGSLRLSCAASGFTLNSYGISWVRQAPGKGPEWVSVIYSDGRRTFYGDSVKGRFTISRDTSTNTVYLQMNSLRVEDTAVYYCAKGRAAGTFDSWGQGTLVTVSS
VL: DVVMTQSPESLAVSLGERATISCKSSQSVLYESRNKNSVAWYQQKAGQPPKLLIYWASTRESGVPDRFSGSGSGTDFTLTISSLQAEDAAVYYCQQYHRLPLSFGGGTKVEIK

Variants are written as CDR1, CDR2 and CDR3 of the light chain (limits as in the source). Parent: KSSQSVLYESRNKNSVA, WASTRES, QQYHRLPLS. The read-out is the apparent dissociation constant on a log10 scale (nM): the lower, the stronger. A mean of the replicates is given; it leaves out those without a signal. "not detected" means that the variant was in the library but no mating with the target was seen in any replicate; the authors take this as a sign of poor binding, and no number exists. Order: sorted from the lowest average up, undetected variants last.

{"CDR-L1": "KLQQSVLYESRNKNSVA", "CDR-L2": "QASTRES", "CDR-L3": "QQYHRLPLS", "mean log10 Kd (nM)": "-0.53", "seen in": "6 of 6"}
{"CDR-L1": "KIGMTLNQLMQKKNNVA", "CDR-L2": "DLVTREE", "CDR-L3": "QQYHRLPLS", "mean log10 Kd (nM)": "-0.53", "seen in": "6 of 6"}
{"CDR-L1": "KLSQSYEYESRNKNSVA", "CDR-L2": "NASQREH", "CDR-L3": "QQYHRLPLS", "mean log10 Kd (nM)": "-0.36", "seen in": "6 of 6"}
{"CDR-L1": "KVSQSVLYESRNKNSVA", "CDR-L2": "DASTRCS", "CDR-L3": "QQYHRLPLE", "mean log10 Kd (nM)": "-0.27", "seen in": "6 of 6"}
{"CDR-L1": "KLSMVTGHLSMAKNNVA", "CDR-L2": "EMVTREK", "CDR-L3": "QQYNRLPLA", "mean log10 Kd (nM)": "-0.25", "seen in": "6 of 6"}
{"CDR-L1": "KLSQSVLYESRNKNSVA", "CDR-L2": "NASTRCE", "CDR-L3": "QQYHRLPLS", "mean log10 Kd (nM)": "-0.23", "seen in": "6 of 6"}
{"CDR-L1": "KFSQSKLYESRNKNSVA", "CDR-L2": "NASQRES", "CDR-L3": "QQYHRLPLS", "mean log10 Kd (nM)": "-0.10", "seen in": "6 of 6"}
{"CDR-L1": "KVEQSVLYESRNKNAVA", "CDR-L2": "QGSTRES", "CDR-L3": "QQYHRLPLH", "mean log10 Kd (nM)": "-0.06", "seen in": "6 of 6"}
{"CDR-L1": "KLEQSVCYESRNKNSVA", "CDR-L2": "NASTRES", "CDR-L3": "QQYHRLPLS", "mean log10 Kd (nM)": "0.01", "seen in": "6 of 6"}
{"CDR-L1": "KLSQSWLYESRNKNSVA", "CDR-L2": "NASQREM", "CDR-L3": "QQYHRLPLS", "mean log10 Kd (nM)": "0.02", "seen in": "6 of 6"}
{"CDR-L1": "KVSNSVDGQDRNKNAVA", "CDR-L2": "EASTRES", "CDR-L3": "QQYHRLPLS", "mean log10 Kd (nM)": "0.08", "seen in": "6 of 6"}
{"CDR-L1": "KLQQSQEYESRNKNSVA", "CDR-L2": "QASTRED", "CDR-L3": "QQYHRLPLS", "mean log10 Kd (nM)": "0.12", "seen in": "6 of 6"}
{"CDR-L1": "KFSQSVLYESRNKNSVA", "CDR-L2": "NAQTRLW", "CDR-L3": "QQYHRLPLS", "mean log10 Kd (nM)": "0.14", "seen in": "6 of 6"}
{"CDR-L1": "KLASVTGTEKVRGNNVA", "CDR-L2": "EMETREK", "CDR-L3": "QQYNRLPLS", "mean log10 Kd (nM)": "0.25", "seen in": "6 of 6"}
{"CDR-L1": "SIEWEEWNGQSVKHNIA", "CDR-L2": "ADTKVLE", "CDR-L3": "QQYFRLPFT", "mean log10 Kd (nM)": "0.50", "seen in": "6 of 6"}
{"CDR-L1": "ALREVFYQEQVEHSAIA", "CDR-L2": "DGEHLNN", "CDR-L3": "QQYSMLPLS", "mean log10 Kd (nM)": "0.81", "seen in": "6 of 6"}
{"CDR-L1": "NLSIQNQPQNMFANNVA", "CDR-L2": "QTESRCE", "CDR-L3": "QQYNQLPLA", "mean log10 Kd (nM)": "0.84", "seen in": "6 of 6"}
{"CDR-L1": "TISQSAQQESHIKNSVA", "CDR-L2": "DLNVRGS", "CDR-L3": "QQYDRLPLS", "mean log10 Kd (nM)": "0.88", "seen in": "6 of 6"}
{"CDR-L1": "MISGTVMSESRLKNSVA", "CDR-L2": "QTTTRES", "CDR-L3": "QQYDRLPLS", "mean log10 Kd (nM)": "0.89", "seen in": "6 of 6"}
{"CDR-L1": "KCSQSVLYESRNKNSVA", "CDR-L2": "WASTRES", "CDR-L3": "QQYGRLPLS", "mean log10 Kd (nM)": "1.05", "seen in": "6 of 6"}
{"CDR-L1": "KSSQSVLYESRNKNQVA", "CDR-L2": "WASTRSS", "CDR-L3": "QQYHRLTLS", "mean log10 Kd (nM)": "1.27", "seen in": "3 of 6"}
{"CDR-L1": "KSSQSYLYESTNKNSVA", "CDR-L2": "WASTRES", "CDR-L3": "QQYHRLPLS", "mean log10 Kd (nM)": "1.70", "seen in": "2 of 6"}
{"CDR-L1": "KSSQSVLYESRNLNSVA", "CDR-L2": "WATTRES", "CDR-L3": "QQYHRLPLS", "mean log10 Kd (nM)": "2.13", "seen in": "6 of 6"}
{"CDR-L1": "KLSQSVPYESRNKNSVA", "CDR-L2": "NASQRES", "CDR-L3": "QQYHRLPLS", "mean log10 Kd (nM)": "3.16", "seen in": "2 of 6"}
{"CDR-L1": "KSSQSFLYESRNKNSVA", "CDR-L2": "GASTRES", "CDR-L3": "QMYHRLTLS", "mean log10 Kd (nM)": "not detected", "seen in": "0 of 6"}
{"CDR-L1": "KSSQSALYESRNKNSVA", "CDR-L2": "WASTRES", "CDR-L3": "QQSHCLPLS", "mean log10 Kd (nM)": "not detected", "seen in": "0 of 6"}
{"CDR-L1": "YSSQSVLEESRNKNSVA", "CDR-L2": "WASTRES", "CDR-L3": "QDPHRLPLS", "mean log10 Kd (nM)": "not detected", "seen in": "0 of 6"}

4 of these entries, quoted again:

CDR-L1	CDR-L2	CDR-L3	mean log10 Kd (nM)	seen in
KLQQSVLYESRNKNSVA	QASTRES	QQYHRLPLS	-0.53	6 of 6
NLSIQNQPQNMFANNVA	QTESRCE	QQYNQLPLA	0.84	6 of 6
KSSQSVLYESRNKNQVA	WASTRSS	QQYHRLTLS	1.27	3 of 6
KLEQSVCYESRNKNSVA	NASTRES	QQYHRLPLS	0.01	6 of 6

Nonspecific signal, from three strains lacking the peptide, appeared in 4% of pairings of all light chain designs, centred on 2.64 (5% of these signals below 1.59); values are not corrected for it. The authors averaged sequences with at least three values out of six and counted those with two or fewer as poor binders. Values of this round are not directly comparable with the first-round values of the same sequences. The parent sequence was in this pool as ten entries: three were never detected, three once, and four in most replicates, with averages from 0.34 to 2.37.

Reference: Li et al. 2023, doi:10.1038/s41467-023-39022-2. File: FLAb, binding data.